Experimental data: patent EP3959993B1, “METHOD FOR SOLVENT FREE PRODUCTION OF AROMA CONCENTRATES” (Symrise AG, priority 2020, dated 2022)

Key:
[1] = Influence of the amount of NaCl on the distribution between oil phase and water phase (Example 5); type: physicochemical
[2] = Second oil phase obtained by adding NaCl to the water phase (Example 4); type: physicochemical
Protocol: Cross linked polystyrene was used as adsorbent material. The volume flux for loading the adsorbent was 300 ml/min.
The adsorbent was heated to 150 °C, the temperature of the applied water steam was 160 °C.
The water steam flux was 10 g/min and was applied for 100 min.
The oil and water phases were separated.
A second oil phase was separated and was collected.

With butanol the “Distribution in [%] between oil phase and water phase after condensation: Water phase” value [1] was 50% and 46% and 75.1% and 64.8% and 54.2% and 52.5% and the “Loss in the water phase” value [2] was 46,0%.

Several values for one entry are separate records, joined by “and”; a condition that tells them apart may be missing. Identical values can stand only once.
